Patent publication US20250179045A1, “LPAR1 ANTAGONISTS AND USES THEREOF” (Contineum Therapeutics, Inc., priority 2021, published 2025)
Where two headings read alike, the source gives them in different places.

Amino acid sequences for entries named in this document (tags omitted).
UniProt Q92633, whole entry: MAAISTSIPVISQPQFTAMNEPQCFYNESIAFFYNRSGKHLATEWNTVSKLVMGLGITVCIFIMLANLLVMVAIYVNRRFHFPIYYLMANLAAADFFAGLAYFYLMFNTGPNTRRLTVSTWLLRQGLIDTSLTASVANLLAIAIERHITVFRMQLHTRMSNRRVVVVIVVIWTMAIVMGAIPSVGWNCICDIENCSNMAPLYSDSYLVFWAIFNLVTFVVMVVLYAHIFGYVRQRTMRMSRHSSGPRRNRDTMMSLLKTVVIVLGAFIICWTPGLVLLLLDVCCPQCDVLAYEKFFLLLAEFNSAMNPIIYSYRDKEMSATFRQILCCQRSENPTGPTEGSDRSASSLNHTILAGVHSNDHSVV

Molecular target: human LPA1 (Homo sapiens, UniProt Q92633)
Test: In vitro functional assay of lysophosphatidic acid receptor 1 activity (calcium flux)
Details: read-out: LPA1 IC50, B103 cells stably expressing human LPA1, Fluo-4 NW calcium flux after lysophosphatidic acid (18:1) at EC80, compounds 100 pM to 10 μM

## CC(C)c1ccccc1C1(C(=O)Nc2ncc(Cl)cc2OC(F)F)CC(=O)N(C)C1 (single isomer, unassigned)
Listed as 76-isomer A
  IC50: 100 to 1000 nM
Listed as 76-isomer B
  IC50: 10 to 100 nM

## COc1ccc(NC(=O)C2(c3ccccc3C(C)C)CC(=O)N(C)C2)c(OC(F)F)n1 (single isomer, unassigned)
  IC50: 10 to 100 nM

## COc1ccc(NC(=O)C2(c3ccccc3C(C)C)CNC(=O)C2)c(OC(F)F)n1 (single isomer, unassigned)
Listed as 89-isomer A
  IC50: 10 to 100 nM
Listed as 89-isomer B
  IC50: 100 to 1000 nM

## COc1ccc(NC(=O)C2(c3ccccc3C(C)C)CC(CC(=O)O)C2)c(OC(F)F)n1 (single isomer, unassigned)
  IC50: < 10 nM

## Cc1ccc(NC(=O)C2(c3ccccc3C(C)C)CNC(=O)C2)c(OC(F)F)n1 (single isomer, unassigned)
Listed as 90-isomer A
  IC50: 10 to 100 nM
Listed as 90-isomer B
  IC50: 100 to 1000 nM

## Cc1ccc(NC(=O)C2(c3ccccc3C(C)C)CC(CC(=O)O)C2)c(OC(F)F)n1 (single isomer, unassigned)
  IC50: < 10 nM

## CC(C)c1ccccc1C1(C(=O)Nc2ccc(Cl)cn2)CC(CC(=O)O)C1 (single isomer, unassigned)
  IC50: 10 to 100 nM
